Assay results taken from PMC11597446, “Using the Cocrystal Approach as a Promising Drug Delivery System to Enhance the Dissolution and Bioavailability of Formononetin Using an Imidazole Coformer” (Pharmaceuticals, 2024).

Assay: Powder dissolution experiment in bio-relevant media (FaSSGF, FaSSIF)

For “formononetin-imidazole [FMN-IMD cocrystal]”, the “concentration over time after rapid dissolution” value (FaSSGF and FaSSIF, 6 h experiments) was “remained steady” and the “solubility in test media containing PVP K30” value (FaSSGF or FaSSIF with PVP K30 (2.5 mg/mL), n = 1) was “enhanced further”.
